# Literature values as cited in US7588892B2, “Reagent sets and gene signatures for renal tubule injury” (Entelos, Inc., priority 2004, dated 2009).
# System: renal tubules
# Conditions: rats, daily dose, route and vehicle of Table 2, day 5/7; absence of nephrotoxicity asserted from PDR and published literature; no histological injury on day 5/7; cited from earlier work
structure (smiles),measurement,value
Cc1cc(=O)n(-c2ccccc2)n1C [ANTIPYRINE],Class (nephrotoxic / non-nephrotoxic training label),Non-nephrotoxic
